Literature values in patent US11771641B2, “Method for dyeing keratinous material by means of a premix of aminosilicone and a chromophoric compound” (Henkel AG & Co. KGaA, priority 2019, dated 2023).

Conditions: 25° C.

3,4,5,6-tetrachloro-2-(1,4,5,8-tetrabromo-6-hydroxy-3-oxoxanthen-9-yl)benzoic acid [Acid Red 92]
solubility in water: greater than 10 g/L
